Measured values from article PMC9937529, “Mechanism of activation and biased signaling in complement receptor C5aR1” (Cell Research, 2023).
Changes are numbered by the printed parent chain.

Assays:
Experiment in all cases: cAMP inhibition assay (GloSensor)
Format in all cases: cell-based
Conditions in all cases: HEK293, 2.5 μM forskolin, mean±SEM, n=3
C5aR1 E1995.35A = molecular target: T1, C5aR1 E1995.35A (Homo sapiens, UniProt P21730, E199A)
T1 construct: expressed in transfected cells; host or cells: HEK293
T1 sequence (P21730 1-350 E199A): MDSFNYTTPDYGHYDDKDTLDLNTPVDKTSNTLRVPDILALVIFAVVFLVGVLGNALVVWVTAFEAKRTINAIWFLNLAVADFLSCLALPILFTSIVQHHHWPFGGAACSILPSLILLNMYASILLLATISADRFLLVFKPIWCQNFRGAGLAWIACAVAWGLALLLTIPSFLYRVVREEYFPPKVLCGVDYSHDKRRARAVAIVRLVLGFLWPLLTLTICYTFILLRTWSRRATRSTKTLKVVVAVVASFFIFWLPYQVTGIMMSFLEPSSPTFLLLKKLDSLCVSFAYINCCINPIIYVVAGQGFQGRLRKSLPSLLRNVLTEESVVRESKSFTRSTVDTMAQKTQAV
Description: (§1) The cDNA sequences of wild-type C5aR1 were cloned into the expression vector pcDNA3.1(+) with a HA signal sequence followed by a Flag tag at the N-terminus. Mutants used in our study were generated by using the Q5 site-Directed Mutagenesis kit (NEB). All the constructs were verified by sanger sequencing. The constructs were transiently expressed in HEK293 cells using PEI transfection reagent (YEASEN, 40816ES02) according to the manufacturer’s instruction. Cells were harvested 48 h post transfection. Cell surface expression levels of receptors were measured by enzyme-linked immunosorbent assay (ELISA).
(§2) To measure cAMP inhibition effects on the forskolin-induced cAMP accumulation of C5aR1, the GloSensor cAMP assay (Promega) was performed as described in the previous study.[59] Briefly, Flag-tagged wild-type human C5aR1 was co-expressed with GloSensor plasmid in HEK293 cells in 6-well culture plates. After at least 24 h, transfected cells were harvested and suspended in assay buffer Hank’s Balanced Salt Solution (HBSS) containing 10 mM HEPES, pH 7.4, with an additional 3% v/v dilution of the D-Luciferin-Potassium Salt (YEASEN, 40902ES01). The ligands used in this study were dissolved in H2O to a stock concentration of 10 mM and followed by serial dilution using HBSS solution immediately before ligand stimulation. After incubation at 37 °C for 2 h, cells were stimulated by ligand (diluted in assay buffer containing 2.5 μM forskolin) for 30 min at room temperature. […] Finally, the luminescence signals were counted on the Synergy H1 microplate reader (BioTek). Each measurement was repeated in at least three independent experiments, each in triplicate. Data were processed using the nonlinear regression (curve fit) dose-response function in GraphPad Prism 7 to calculate the values of Emax and EC50.

C5aR1 Y2586.51A = molecular target: T2, C5aR1 Y2586.51A (Homo sapiens, UniProt P21730, Y258A)
T2 construct: expressed in transfected cells; host or cells: HEK293
T2 sequence (P21730 1-350 Y258A): T1 sequence (P21730 1-350 E199A) with A199E, Y258A
Description: as §1, §2

C5aR1 D2827.35A = molecular target: T3, C5aR1 D2827.35A (Homo sapiens, UniProt P21730, D282A)
T3 construct: expressed in transfected cells; host or cells: HEK293
T3 sequence (P21730 1-350 D282A): T1 sequence (P21730 1-350 E199A) with A199E, D282A
Description: as §1, §2

C5aR1 D191ECL2A = molecular target: T4, C5aR1 D191ECL2A (Homo sapiens, UniProt P21730, D191A)
T4 construct: expressed in transfected cells; host or cells: HEK293
T4 sequence (P21730 1-350 D191A): T1 sequence (P21730 1-350 E199A) with D191A, A199E
Description: as §1, §2

C5aR1 R1754.64A = molecular target: T5, C5aR1 R1754.64A (Homo sapiens, UniProt P21730, R175A)
T5 construct: expressed in transfected cells; host or cells: HEK293
T5 sequence (P21730 1-350 R175A): T1 sequence (P21730 1-350 E199A) with R175A, A199E
Description: as §1, §2

- EC50 (C5aR1 E1995.35A): 3.24 ± 0.71 nM
- EC50 (C5aR1 Y2586.51A): 7.86 ± 1.53 nM
- EC50 (C5aR1 D2827.35A): 12.9 ± 2.54 nM
- EC50 (C5aR1 D191ECL2A): 8.14 ± 1.47 nM
- EC50 (C5aR1 R1754.64A): 13.1 ± 2.21 nM
B1: C5a: 74-amino-acid complement fragment, endogenous agonist; recombinant human C5a, free cysteine replaced by arginine (protein)
chain: TLQKKIEEIAAKYKHSVVKKCCYDGARVNNDETCEQRAARISLGPRCIKAFTECCVVASQLRANISHKDMQLGR
modifications: three intramolecular disulfides; non-glycosylated (E. coli); Trx-His6 tag removed with TEV
